Assay results: patent publication US20240262832A1, “SMALL MOLECULE MODULATORS OF GLUCOCEREBROSIDASE ACTIVITY AND USES THEREOF” (Vanqua Bio, Inc., priority 2021, published 2024)

Amino acid sequences for entries named in this document (tags omitted). Residues count along the entry.
UniProt P04062, 40-536 limits assumed: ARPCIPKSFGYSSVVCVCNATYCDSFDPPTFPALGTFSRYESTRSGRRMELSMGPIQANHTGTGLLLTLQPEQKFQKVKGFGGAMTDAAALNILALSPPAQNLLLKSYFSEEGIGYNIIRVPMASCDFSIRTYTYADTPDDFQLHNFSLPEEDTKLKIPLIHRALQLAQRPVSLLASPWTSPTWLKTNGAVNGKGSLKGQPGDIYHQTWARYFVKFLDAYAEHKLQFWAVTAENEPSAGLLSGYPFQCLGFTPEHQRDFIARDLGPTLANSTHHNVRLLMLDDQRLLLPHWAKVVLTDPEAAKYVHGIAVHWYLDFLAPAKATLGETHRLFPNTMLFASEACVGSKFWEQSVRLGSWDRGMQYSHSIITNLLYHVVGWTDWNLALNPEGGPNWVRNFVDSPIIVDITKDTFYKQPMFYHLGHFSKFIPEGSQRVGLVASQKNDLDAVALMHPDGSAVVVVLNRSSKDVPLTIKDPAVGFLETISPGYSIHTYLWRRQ

Target: GCase (Homo sapiens, UniProt P04062)
Assay: activation of GCase in a live cell PFB assay in HELA cells
Format: cell-based
Conditions: read-out: GCase EC50

Structure (SMILES) | EC50 [µM]
FC(F)Cn1ncc2ncc(N3CCC(COc4cncc(C(F)(F)F)c4)CC3)nc21 | < 10
FC(F)Cn1ncc2cnc(N3CCC(COc4cnccc4C(F)(F)F)CC3)nc21 | < 10
